Results published in paper PMC6458069 (Molecular microbiology, 2019).

Tested on: M. tuberculosis JR1740 strain
Format: cell-based

Work on `O=C1c2ccccc2C(=O)C1c1ccc(Br)cc1` [Bromindione, reference compound] yielded a Fold change knockdown of 1.
